Our source for the IC50 values is patent publication US7427627B2, “N-(4-(4-methylthiazol-5-yl) pyrimidin-2-yl)-N-phenylamines as antiproliferative compounds” (Cyclacel Limited, priority 2001, dated 2008).

The target of this assay is T1, CDK2/cyclin E (Homo sapiens, UniProt P24941).
T1 construct: His6
The assay can be described thus: Kinase assay CDK2/cyclin E. The class given is biochemical. To be noted: Table 1; read-out: Kinase inhibition, IC50 (μM) CDK2/E.

In the case of `Cc1nc(N(C)C)sc1-c1ccnc(Nc2cccc([N+](=O)[O-])c2)n1` [Compound 52, [4-(2-Dimethylamino-4-methyl-thiazol-5-yl)-pyrimidin-2-yl]-(3-nitro-phenyl)-amine], the IC50 was determined as 0.12 µM.
